Experimental data taken from ChEMBL document CHEMBL1158463 (J Med Chem, 2009).

The chains behind the UniProt entries cited, without tags or fusion partners. Where a name states a change or a piece, a line headed by the entry shows the natural chain unless it says otherwise. Residues count along the entry.
UniProt P05177, 2-516 limits assumed: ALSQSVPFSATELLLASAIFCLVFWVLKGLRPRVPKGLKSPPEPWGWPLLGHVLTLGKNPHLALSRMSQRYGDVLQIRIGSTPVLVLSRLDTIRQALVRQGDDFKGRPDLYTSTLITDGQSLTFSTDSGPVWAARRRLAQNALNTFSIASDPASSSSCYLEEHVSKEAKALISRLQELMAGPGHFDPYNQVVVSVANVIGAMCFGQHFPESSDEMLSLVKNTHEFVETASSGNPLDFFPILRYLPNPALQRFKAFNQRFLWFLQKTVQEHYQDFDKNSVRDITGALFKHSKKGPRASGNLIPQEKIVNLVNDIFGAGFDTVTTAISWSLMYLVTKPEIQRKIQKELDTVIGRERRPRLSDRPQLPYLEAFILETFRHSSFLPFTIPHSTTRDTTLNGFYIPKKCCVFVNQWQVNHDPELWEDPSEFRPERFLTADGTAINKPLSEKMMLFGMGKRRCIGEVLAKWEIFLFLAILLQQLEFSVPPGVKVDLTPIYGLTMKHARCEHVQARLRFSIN
UniProt P10632, whole entry, looked up: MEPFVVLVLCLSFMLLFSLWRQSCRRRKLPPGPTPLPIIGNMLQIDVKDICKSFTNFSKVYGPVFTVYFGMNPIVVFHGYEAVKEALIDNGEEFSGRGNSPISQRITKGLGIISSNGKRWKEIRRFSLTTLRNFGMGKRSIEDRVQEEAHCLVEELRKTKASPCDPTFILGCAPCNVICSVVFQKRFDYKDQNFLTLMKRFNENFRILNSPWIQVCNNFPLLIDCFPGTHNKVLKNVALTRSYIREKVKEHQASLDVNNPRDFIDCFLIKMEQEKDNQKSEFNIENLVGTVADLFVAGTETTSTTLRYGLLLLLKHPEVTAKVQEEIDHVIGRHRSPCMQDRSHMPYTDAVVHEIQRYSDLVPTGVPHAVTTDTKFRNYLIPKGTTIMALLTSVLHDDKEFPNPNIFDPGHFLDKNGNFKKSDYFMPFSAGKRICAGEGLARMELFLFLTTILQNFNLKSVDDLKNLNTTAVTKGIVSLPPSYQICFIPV
UniProt P11712, whole entry, looked up: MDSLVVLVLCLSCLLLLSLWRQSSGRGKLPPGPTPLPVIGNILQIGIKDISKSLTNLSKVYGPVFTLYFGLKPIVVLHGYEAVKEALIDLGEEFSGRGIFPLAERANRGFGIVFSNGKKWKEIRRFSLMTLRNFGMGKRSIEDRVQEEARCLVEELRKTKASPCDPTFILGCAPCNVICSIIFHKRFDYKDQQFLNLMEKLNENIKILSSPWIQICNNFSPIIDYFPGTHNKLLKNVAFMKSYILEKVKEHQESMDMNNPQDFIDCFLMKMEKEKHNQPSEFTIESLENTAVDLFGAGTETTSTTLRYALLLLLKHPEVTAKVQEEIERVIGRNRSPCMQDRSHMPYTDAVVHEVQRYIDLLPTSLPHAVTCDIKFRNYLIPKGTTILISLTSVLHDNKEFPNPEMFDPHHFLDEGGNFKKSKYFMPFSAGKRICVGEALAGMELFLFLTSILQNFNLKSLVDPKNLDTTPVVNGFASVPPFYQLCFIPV
UniProt P10635, whole entry, looked up: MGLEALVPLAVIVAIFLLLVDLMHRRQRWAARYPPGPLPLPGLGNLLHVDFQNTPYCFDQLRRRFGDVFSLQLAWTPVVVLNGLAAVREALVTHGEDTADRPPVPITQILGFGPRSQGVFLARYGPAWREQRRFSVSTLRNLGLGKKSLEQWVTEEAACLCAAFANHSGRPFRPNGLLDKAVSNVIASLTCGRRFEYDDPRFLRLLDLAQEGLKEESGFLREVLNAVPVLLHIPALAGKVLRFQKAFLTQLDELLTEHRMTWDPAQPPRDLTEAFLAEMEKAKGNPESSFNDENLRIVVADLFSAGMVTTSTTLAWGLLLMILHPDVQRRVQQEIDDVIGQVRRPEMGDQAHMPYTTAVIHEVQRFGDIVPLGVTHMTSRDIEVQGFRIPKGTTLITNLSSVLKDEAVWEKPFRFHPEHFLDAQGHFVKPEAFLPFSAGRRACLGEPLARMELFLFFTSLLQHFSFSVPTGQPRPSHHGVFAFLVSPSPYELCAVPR
UniProt P08684, 2-503 limits assumed: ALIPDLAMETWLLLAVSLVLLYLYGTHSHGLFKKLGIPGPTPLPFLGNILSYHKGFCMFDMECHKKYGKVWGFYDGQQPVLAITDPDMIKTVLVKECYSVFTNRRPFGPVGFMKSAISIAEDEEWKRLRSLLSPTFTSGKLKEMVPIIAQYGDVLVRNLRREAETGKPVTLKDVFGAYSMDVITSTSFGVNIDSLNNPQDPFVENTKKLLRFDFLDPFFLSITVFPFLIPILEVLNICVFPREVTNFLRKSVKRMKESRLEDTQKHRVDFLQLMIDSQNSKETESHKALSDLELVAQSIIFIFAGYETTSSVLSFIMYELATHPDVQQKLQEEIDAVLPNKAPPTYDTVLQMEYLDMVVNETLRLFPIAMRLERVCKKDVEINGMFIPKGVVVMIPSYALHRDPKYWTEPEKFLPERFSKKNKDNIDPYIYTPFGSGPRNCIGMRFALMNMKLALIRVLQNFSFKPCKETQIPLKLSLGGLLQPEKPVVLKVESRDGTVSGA
UniProt Q12809: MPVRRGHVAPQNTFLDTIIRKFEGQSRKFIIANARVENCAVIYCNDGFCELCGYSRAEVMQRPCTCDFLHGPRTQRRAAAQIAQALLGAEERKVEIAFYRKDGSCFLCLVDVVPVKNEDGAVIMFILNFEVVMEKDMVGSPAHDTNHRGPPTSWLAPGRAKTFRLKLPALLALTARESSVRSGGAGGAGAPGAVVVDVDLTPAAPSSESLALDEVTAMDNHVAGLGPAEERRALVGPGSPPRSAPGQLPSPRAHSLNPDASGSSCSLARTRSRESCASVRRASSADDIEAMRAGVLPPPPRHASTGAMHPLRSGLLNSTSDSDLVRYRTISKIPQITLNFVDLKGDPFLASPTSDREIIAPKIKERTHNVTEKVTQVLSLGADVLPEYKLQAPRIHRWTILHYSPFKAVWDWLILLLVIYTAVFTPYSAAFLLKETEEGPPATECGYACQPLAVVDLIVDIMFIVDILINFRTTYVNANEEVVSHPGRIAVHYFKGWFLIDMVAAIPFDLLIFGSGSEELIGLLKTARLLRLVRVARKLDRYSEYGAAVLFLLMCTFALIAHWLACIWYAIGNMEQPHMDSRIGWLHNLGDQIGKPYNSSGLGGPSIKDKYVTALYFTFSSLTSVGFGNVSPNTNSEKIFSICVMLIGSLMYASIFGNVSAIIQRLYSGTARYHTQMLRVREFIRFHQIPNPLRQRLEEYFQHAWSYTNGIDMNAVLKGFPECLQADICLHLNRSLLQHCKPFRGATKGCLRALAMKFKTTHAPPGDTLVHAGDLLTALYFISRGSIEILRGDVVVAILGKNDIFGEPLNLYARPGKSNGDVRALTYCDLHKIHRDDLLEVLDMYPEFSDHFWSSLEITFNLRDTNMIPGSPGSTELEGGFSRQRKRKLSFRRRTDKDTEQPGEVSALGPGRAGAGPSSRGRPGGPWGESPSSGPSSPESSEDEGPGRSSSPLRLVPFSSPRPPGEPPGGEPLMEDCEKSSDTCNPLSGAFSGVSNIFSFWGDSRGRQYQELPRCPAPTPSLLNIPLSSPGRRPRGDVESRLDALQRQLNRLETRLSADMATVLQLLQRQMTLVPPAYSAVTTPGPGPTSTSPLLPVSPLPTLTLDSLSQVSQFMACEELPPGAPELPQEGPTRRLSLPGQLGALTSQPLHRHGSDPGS

What was measured:
Mus musculus [1] = experiment: Plasma concentration in CD1 (ICR) mouse at 30 mg/kg, po after 3 hrs; settings: read-out: Cp, in vivo, strain CD1 (ICR)
Mus musculus [2] = experiment: Plasma concentration in P-gp deficient CF1 mouse at 0.3 mg/kg, sc after 1 hr; settings: read-out: Cp, in vivo, strain CF1, Plasma
Mus musculus [3] = experiment: Antagonist activity at ORL1 receptor in CD1 (ICR) mouse assessed as reversal of WO03/10168-induced locomotor activity at 30 mg/kg, po administered 30 mins prior to WO03/10168 challenge; parameters: scale not given: the % may be the effect or the level left
Brain [4] = experiment: Drug level in CD1 (ICR) mouse brain at 30 mg/kg, po after 3 hrs assessed per gram of brain; settings: in vivo, strain CD1 (ICR)
[5] = Ratio of drug level in brain to plasma in CD1 (ICR) mouse at 30 mg/kg, po after 3 hrs; settings: strain CD1 (ICR)
Liver microsomes [6] = experiment: Metabolic stability in human liver microsomes assessed as compound remaining at 1 uM after 30 mins; settings: 0.5 h
Liver microsomes [7] = experiment: Metabolic stability in rat liver microsomes assessed as compound remaining at 1 uM after 30 mins; settings: 0.5 h
Rattus norvegicus [8] = experiment: Half life in fasted Sprague-Dawley rat at 1 mg/kg, iv; settings: in vivo
Rattus norvegicus [9] = experiment: Volume of distribution at steady state in fasted Sprague-Dawley rat at 1 mg/kg, iv; settings: in vivo
Rattus norvegicus [10] = experiment: Oral bioavailability in fasted Sprague-Dawley rat at 3 mg/kg; settings: in vivo
LLC-PK1 [11] = experiment: Ratio of transcellular transport from apical to basolateral side over basolateral to apical side in pig LLC-PK1 cells expressing mouse L-mdr1a at 1 uM after 3 hrs; settings: llc-pk1, 3 h
LLC-PK1 [12] = experiment: Ratio of transcellular transport from apical to basolateral side over basolateral to apical side in pig LLC-PK1 cells expressing human L-MDR1 at 1 uM after 3 hrs; settings: llc-pk1, 3 h
Brain [13] = experiment: Drug level in P-gp deficient CF1 mouse brain at 0.3 mg/kg, sc after 1 hr assessed per gram of brain; settings: in vivo, strain CF1, Brain
[14] = Ratio of drug level in brain to plasma in P-gp deficient CF1 mouse at 0.3 mg/kg, sc after 1 hr; settings: strain CF1, Brain/Plasma
Canis familiaris = experiment: Toxicity in dog assessed as change in cardiovascular variables up to 5 mg/kg by telemetry study; settings: in vivo, Heart
Rattus norvegicus [15] = experiment: Bioavailability in fasted Sprague-Dawley rat at 3 mg/kg, iv and 10 mg/kg, po; settings: in vivo
Cytochrome P450 1A2 = Cytochrome P450 1A2 (Homo sapiens, UniProt P05177); experiment: Inhibition of CYP1A2 in human liver microsomes assessed as inhibition of acetophenacetin odeethylation
Cytochrome P450 2C8 = Cytochrome P450 2C8 (Homo sapiens, UniProt P10632); experiment: Inhibition of CYP2C8 in human liver microsomes assessed as inhibition of paclitaxel 6-alpha-hydroxylation
Cytochrome P450 2C9 = Cytochrome P450 2C9 (Homo sapiens, UniProt P11712); experiment: Inhibition of CYP2C9 in human liver microsomes assessed as inhibition of diclofenac 4'-hydroxylation
Cytochrome P450 2D6 = Cytochrome P450 2D6 (Homo sapiens, UniProt P10635); experiment: Inhibition of CYP2D6 in human liver microsomes assessed as inhibition of dextrometorphan O-demethylation
Cytochrome P450 3A4 = Cytochrome P450 3A4 (Homo sapiens, UniProt P08684); experiment: Inhibition of CYP3A4 in human liver microsomes assessed as inhibition of testosterone 6-beta-hydroxylation
[16] = biological target: Voltage-gated inwardly rectifying potassium channel KCNH2 (Homo sapiens, UniProt Q12809); experiment: Displacement of radiolabeled MK-499 from human ERG expressed in HEK293 cells coexpressing IKr channel protein

O=c1n(C[C@H](O)CO)c2ccccc2n1C1CCN(C[C@H]2[C@H]3CC[C@H](C3)C23CC3)CC1
concentration (Mus musculus [1]): 0.35 nM | concentration (Mus musculus [2]): 0.078 nM

Cl.O=c1n(C(CO)CO)c2ccccc2n1C1CCN(C[C@H]2[C@H]3CC[C@H](C3)C23CC3)CC1
Activity (Mus musculus [3]): 69% | Drug uptake (Brain [4]): 0.25 nmol/g | BPR [5]: 0.48 | Stability (Liver microsomes [6]): 45% | Stability (Liver microsomes [7]): 74% | t1/2 (Rattus norvegicus [8]): 1.3 h | Vdss (Rattus norvegicus [9]): 5.3 L/kg | bioavailability (Rattus norvegicus [10]): 22% | Ratio (LLC-PK1 [11]): 13.2 | Ratio (LLC-PK1 [12]): 2.8 | Drug uptake (Brain [13]): 0.43 nmol/g | BPR [14]: 4.1

CCn1c(=O)n([C@@H]2CCN(CC3CCCCCCC3)C[C@H]2CO)c2ccccc21
Stability (Liver microsomes [6]): 0% | Stability (Liver microsomes [7]): 0% | Activity (Canis familiaris): Non-toxic | bioavailability (Rattus norvegicus [15]): 7%

Cl.O=c1n(C[C@H](O)CO)c2ccccc2n1C1CCN(C[C@H]2[C@H]3CC[C@H](C3)C23CC3)CC1
Activity (Mus musculus [3]): 77% | Drug uptake (Brain [4]): 0.28 nmol/g | BPR [5]: 0.79 | t1/2 (Rattus norvegicus [8]): 1.4 h | Vdss (Rattus norvegicus [9]): 3.7 L/kg | bioavailability (Rattus norvegicus [10]): 17% | Drug uptake (Brain [13]): 0.42 nmol/g | BPR [14]: 5.6

O=c1n(C[C@@H](O)CO)c2ccccc2n1C1CCN(C[C@H]2[C@H]3CC[C@H](C3)C23CC3)CC1
concentration (Mus musculus [1]): 0.19 nM | concentration (Mus musculus [2]): 0.087 nM | IC50 (Cytochrome P450 1A2): > 100 µM | IC50 (Cytochrome P450 2C8): > 100 µM | IC50 (Cytochrome P450 2C9): > 100 µM | IC50 (Cytochrome P450 2D6): 16 µM | IC50 (Cytochrome P450 3A4): > 100 µM | IC50 [16]: 25 µM

Cl.O=c1n(C[C@@H](O)CO)c2ccccc2n1C1CCN(C[C@H]2[C@H]3CC[C@H](C3)C23CC3)CC1 [listing 1 of 2 here]
Drug uptake (Brain [4]): 0.19 nmol/g | BPR [5]: 1 | t1/2 (Rattus norvegicus [8]): 1.1 h | Vdss (Rattus norvegicus [9]): 4.8 L/kg | bioavailability (Rattus norvegicus [10]): 33% | Drug uptake (Brain [13]): 0.56 nmol/g | BPR [14]: 6.4

O=c1n(C(CO)CO)c2ccccc2n1C1CCN(C[C@H]2[C@H]3CC[C@H](C3)C23CC3)CC1
concentration (Mus musculus [1]): 0.54 nM | concentration (Mus musculus [2]): 0.1 nM

Cl.O=c1n(C[C@@H](O)CO)c2ccccc2n1C1CCN(C[C@H]2[C@H]3CC[C@H](C3)C23CC3)CC1 [listing 2 of 2 here]
Activity (Mus musculus [3]): 85%
